The source of these data is EP0801527B1 (priority 1995, dated 1996).

Chains of the proteins cited; added tags and fusions are not shown. Residues count along the entry.
UniProt P09483, 31-630: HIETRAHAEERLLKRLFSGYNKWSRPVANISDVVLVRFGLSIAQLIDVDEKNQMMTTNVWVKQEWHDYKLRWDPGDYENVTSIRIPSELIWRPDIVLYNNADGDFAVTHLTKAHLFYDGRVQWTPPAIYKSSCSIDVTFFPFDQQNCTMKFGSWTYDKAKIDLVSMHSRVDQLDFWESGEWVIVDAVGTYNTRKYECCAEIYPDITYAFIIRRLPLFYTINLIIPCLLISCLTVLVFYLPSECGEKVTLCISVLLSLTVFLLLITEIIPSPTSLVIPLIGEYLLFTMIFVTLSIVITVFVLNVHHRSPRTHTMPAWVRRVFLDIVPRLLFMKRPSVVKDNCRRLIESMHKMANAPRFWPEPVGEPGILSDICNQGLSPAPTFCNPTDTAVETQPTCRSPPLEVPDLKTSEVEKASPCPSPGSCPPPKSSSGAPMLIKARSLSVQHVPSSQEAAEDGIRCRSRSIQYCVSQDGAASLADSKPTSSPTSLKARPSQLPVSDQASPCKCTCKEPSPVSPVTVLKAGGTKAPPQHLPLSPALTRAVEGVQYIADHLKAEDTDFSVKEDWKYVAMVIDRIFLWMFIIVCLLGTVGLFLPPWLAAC
UniProt P12390, 25-500: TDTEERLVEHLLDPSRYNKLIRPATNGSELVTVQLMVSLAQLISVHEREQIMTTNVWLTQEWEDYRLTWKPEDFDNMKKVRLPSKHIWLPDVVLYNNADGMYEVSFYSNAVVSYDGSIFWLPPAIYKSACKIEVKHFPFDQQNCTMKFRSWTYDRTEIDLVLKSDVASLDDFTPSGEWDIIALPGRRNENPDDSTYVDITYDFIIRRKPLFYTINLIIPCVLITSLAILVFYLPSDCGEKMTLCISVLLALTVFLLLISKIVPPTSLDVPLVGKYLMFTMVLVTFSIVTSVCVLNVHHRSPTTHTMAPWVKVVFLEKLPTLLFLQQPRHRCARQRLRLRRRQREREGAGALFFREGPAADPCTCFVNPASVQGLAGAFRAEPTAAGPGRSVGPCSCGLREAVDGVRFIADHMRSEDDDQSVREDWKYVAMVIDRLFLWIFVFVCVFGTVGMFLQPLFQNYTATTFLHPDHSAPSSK

This assay addresses T1, high affinity CNS nicotinic receptors (Rattus norvegicus, UniProt P09483+P12390).
T1 construct: Brain membrane preparations were obtained from brain tissue of either males or females; from tissue; host or cells: rat (Sprague-Dawley) brain without cerebellum, membrane preparation
The experiment in a line: biochemical. Format: binding, Rats (Sprague-Dawley).

Molecules are shown by their SMILES.

For orientation: Ki means a dissociation constant, usually derived from enzyme kinetics or from competition with a known ligand. A low value points to a stronger hold on the target. `NCC/C=C/c1cncnc1` [Sample No. 1, (E)-4-(5-pyrimidinyl)-3-butene-1-amine monofumarate] gave a Ki of 269 nM.
The figure for `CNCC/C=C/c1cncnc1` [Sample No. 2, (E)-N-methyl-4-(5-pyrimidinyl)-3-butene-1-amine] is 86 nM.
Compound `COc1cncc(/C=C/CCN)c1` [Sample No. 3, (E)-4-[3-(5-methoxypyridin)yl] -3-butene-1-amine monofumarate] returned a Ki of 22 nM.
Turning to `CNCC/C=C/c1ccc(C)nc1` [Sample No. 6, (E)-N-methyl-4-[3-(6-methylpyrindin)yl]-3-butene-1-amine], the Ki amounted to 176 nM.
